A selection: hits, their analogues and other compounds. The true share with any hit is near 2.8%.
miR-122 sensor – blocks miR-122 activity in Huh7 sensor cells; Huh7 miR-122 Renilla luciferase sensor, 48 h; neutral wells = 0, positive control = 100; activation (reporter increase), % at 12.5 µM; 0.3% of 340,000 active; AID 602342;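 active means mean replicate activation score at least 90 and every replicate individually at or above 90; inconclusive means only one of the two criteria met; inactive means neither criterion met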;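 further: higher luciferase means less miR-122 activity so hits act as miR-122 inhibitors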
MITF act – MITF TRPM1 promoter activation in melanoma cells; SK-MEL-5 TRPM1-promoter luciferase, 24 h; % of positive control, neutral wells = 0; activation, % at 12.5 µM; 0.75% of 300,000 active; AID 588334;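 active means mean activation of at least 80% with every replicate also reaching 80%; inconclusive means mean reaches 80% but some replicate falls short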
esBAF inh – inhibitors of esBAF chromatin remodeling in mouse ES cells. Bmi1-luciferase knock-in reporter, 24 h; 100% = twice the neutral-well signal. reporter increase, % at 12.5 µM. 2% of 350,000 active; in the data active means activation above about 40%; inconclusive means no clear call, values can overlap the other calls;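 further: a rise in the Bmi1 reporter signal indicates esBAF inhibition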
PglD inh – PglD (C. jejuni) enzyme inhibition | purified PglD enzyme, DTNB colorimetric CoA detection | inhibition, % at 12.5 µM | 0.098% of 360,000 active; in the data active means inhibition above about 16%, passing the limit was not always enough; inconclusive means no clear call, values can overlap the other calls
UUG fidelity – yeast start codon fidelity modulation. S. cerevisiae UUG-firefly luciferase reporter, luminescence/redox ratio. activity score, % at 18.7 µM. 0.13% of 350,000 active;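 active means replicate mean at a twofold rise or more, about +100% in these data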;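 further: firefly luciferase made from a UUG start codon reports start codon fidelity; reporter light over untreated wells divided by growth signal over untreated wells; some hits fall short of that in this replicate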
Wnt bcat act – activators of Wnt/beta-catenin signaling; AID 743398; activation, % at 9.35 µM; Wnt/beta-catenin reporter cell assay, activator, plate reader; 1.2% of 300,000 active; in the data active means activation above about 30%, passing the limit was not always enough; inconclusive means no clear call, values can overlap the other calls
esBAF Ring1 qPCR – esBAF inhibition confirmed by Ring1 de-repression; shares compounds with esBAF inh; mouse ESC E14, Ring1 mRNA RT-qPCR fold change; fold change at 33 µM; 550 tested, under 10 active; AID 743176;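 active means Ring1 gene expression raised more than 2-fold over untreated cells in both replicates at either tested dose; inconclusive means only one replicate above 2-fold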;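 further: Ring1 transcript normalised to actin housekeeping signal by TaqMan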
Fgf4 repress – represses Fgf4 in mouse ESCs, confirming esBAF inhibition; mouse ESC E14, Fgf4 mRNA qPCR fold change; hits give low values; Fgf4 expression fold change at 33 µM; 4% of 550 active; shares compounds with esBAF inh; AID 743177;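 active means Fgf4 expression under 0.8 fold of control in both repeat measurements at one or both tested doses; inconclusive means under 0.8 fold in just a single repeat measurement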;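 further: Fgf4 transcript normalised to actin in duplex TaqMan qPCR; cells exposed to compound for 24 h before lysis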
Bmi1 derepress – esBAF inhibition confirmed by Bmi1 de-repression; 550 tested, under 10 active; AID 743180; shares compounds with esBAF inh; fold change at 33 µM; mouse ESE14 ES cells, Bmi1 mRNA qPCR fold; hits give high values;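 active means Bmi1 expression fold change above 6 at either tested concentration, seen in replicate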;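 further: higher fold means more Bmi1 de-repression and stronger esBAF inhibition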
A549 tox SP – cytotoxicity in A549 cells; plate reader; shares compounds with esBAF inh; cell viability change % (negative = cytotoxic), % at 25 µM, hits read low; 550 tested, under 10 active; AID 743188; call rule not given here
HepG2 cytotox SP – HepG2 cell cytotoxicity at single point; shares compounds with esBAF inh; plate reader; hits give low values; activity change, negative = inhibition, % at 25 µM; 4% of 550 active; AID 743189; in the data active means activity change below about -50%
HEK293 tox SP – kills or reduces viability of HEK293 cells; activity change, negative = inhibition, % at 25 µM, hits read low; HEK293 cytotoxicity, plate reader; AID 743190; shares compounds with esBAF inh; 3% of 550 active; in the data active means activity change below about -38%, passing the limit was not always enough
Large screens that a line does not name were inactive (follow-up assays come after a bar, where they were run).

COc1ccccc1NC(=O)Cn1nnc(-c2ccccc2NC(=O)c2cc3ccccc3oc2=O)n1	esBAF inh 65.7 | esBAF Ring1 qPCR inactive | Fgf4 repress inactive | Bmi1 derepress inactive | A549 tox SP inactive | HepG2 cytotox SP inactive | HEK293 tox SP inactive
C[C@@H]1CCCCO[C@@H](CN(C)Cc2ccc(C(=O)O)cc2)[C@H](C)CN([C@H](C)CO)C(=O)c2cc(NC(=O)Nc3cccc4ccccc34)ccc2O1	none (no result: MITF act, Wnt bcat act)
COC(=O)C1CCc2c(ccc3c2CCCC3)C1=O (centres undefined)	MITF act 100.8, esBAF inh 59.9 (no result: miR-122 sensor) | esBAF Ring1 qPCR inactive | Fgf4 repress inactive | Bmi1 derepress inactive | A549 tox SP inactive | HepG2 cytotox SP inactive | HEK293 tox SP inactive
COc1cc(OC)cc(C(=O)Nc2cccc3c2CCCC3)c1	none
O=C(C/C=N/OCc1ccccc1F)c1cnc(-c2ccc(Cl)cc2)s1	none (no result: Wnt bcat act)
O=C(c1ccc(Cl)cc1)c1cnc(-c2ccc(Cl)cc2)s1	esBAF inh 62.9 (no result: Wnt bcat act) | esBAF Ring1 qPCR inactive | Fgf4 repress inactive | Bmi1 derepress inactive | A549 tox SP inactive | HepG2 cytotox SP inactive | HEK293 tox SP inactive
C[C@H]1CN([C@@H](C)CO)C(=O)c2cc(NC(=O)NC3CCCCC3)ccc2O[C@@H]1CN(C)C(=O)NC1CCCCC1	none (no result: MITF act, Wnt bcat act)
CN(C)S(=O)(=O)c1cccc(C(=O)Nc2ccc(Cl)cn2)c1	esBAF inh 63.2 | esBAF Ring1 qPCR inactive | Fgf4 repress inactive | Bmi1 derepress inactive | A549 tox SP inactive | HepG2 cytotox SP inactive | HEK293 tox SP inactive
Nc1nc(-c2cccc(F)c2)cs1	esBAF inh 57.5, Wnt bcat act inconclusive | esBAF Ring1 qPCR inactive | Fgf4 repress inconclusive | Bmi1 derepress inactive | A549 tox SP inactive | HepG2 cytotox SP inactive | HEK293 tox SP inactive
Fc1cccc(-c2csc(-c3ccno3)n2)c1	none (no result: miR-122 sensor, esBAF inh, PglD inh, UUG fidelity)
COc1cc2c(cc1OC)C(=Cc1ccc(N(C)C)cc1)C=C2	esBAF inh 67.1 | esBAF Ring1 qPCR inactive | Fgf4 repress inactive | Bmi1 derepress inactive | A549 tox SP inactive | HepG2 cytotox SP inactive | HEK293 tox SP inactive
CN(C)c1ccc(C=C2C=Cc3ccccc32)cc1	none (no result: miR-122 sensor)
O=C1Nc2ccccc2N=C(c2ccc3c(c2)OCO3)C1N(C(=O)c1ccc2ccccc2c1)C1CC1 (centres undefined)	esBAF inh 104.8 (no result: MITF act) | esBAF Ring1 qPCR inactive | Fgf4 repress inactive | Bmi1 derepress inactive | A549 tox SP inactive | HepG2 cytotox SP inactive | HEK293 tox SP inactive
COc1cccc(N2CCN(C(=O)c3ccc4nc(N5CCCCC5)sc4c3)CC2)c1	esBAF inh 63.6 | esBAF Ring1 qPCR inactive | Fgf4 repress inconclusive | Bmi1 derepress inactive | A549 tox SP inactive | HepG2 cytotox SP inactive | HEK293 tox SP inactive
COc1cccc(OCc2cc(C(=O)N(C)Cc3nc4ccccc4[nH]3)no2)c1	esBAF inh 69.1 | esBAF Ring1 qPCR inactive | Fgf4 repress inconclusive | Bmi1 derepress inactive | A549 tox SP inactive | HepG2 cytotox SP inactive | HEK293 tox SP inactive
O=C(NC1CCCCC1)c1n[nH]c2c1CC(c1ccccc1)CC2 (centres undefined)	esBAF inh 69.6 | esBAF Ring1 qPCR inactive | Fgf4 repress inactive | Bmi1 derepress inactive | A549 tox SP inactive | HepG2 cytotox SP inactive | HEK293 tox SP inactive
O=C(NC1CCCCC1)c1ccc(-c2ccccc2)cc1	esBAF inh 70.2 | esBAF Ring1 qPCR inactive | Fgf4 repress inactive | Bmi1 derepress inactive | A549 tox SP inactive | HepG2 cytotox SP inactive | HEK293 tox SP inactive
O=C(NC1CCCCCCC1)c1ccc(F)cc1	none
Cc1cc(C)c2c(CN3CCC(C)CC3)cc(=O)oc2c1	none
Cc1cc2oc(=O)cc(CN3CCC(C)CC3)c2c(C)c1Cl	esBAF inh 58.8 (no result: MITF act) | esBAF Ring1 qPCR inactive | Fgf4 repress inactive | Bmi1 derepress inactive | A549 tox SP inactive | HepG2 cytotox SP inactive | HEK293 tox SP inactive
O=C(Cc1ccccc1)Nc1ccc2c(c1)OC1(CCCC1)O2	MITF act 109.9, esBAF inh 74.5, Wnt bcat act 47.7 | esBAF Ring1 qPCR inactive | Fgf4 repress inactive | Bmi1 derepress inactive | A549 tox SP inactive | HepG2 cytotox SP inactive | HEK293 tox SP inactive
C[C@@H]1CN([C@@H](C)CO)S(=O)(=O)c2ccc(-c3cccnc3)cc2O[C@H]1CN(C)C(=O)C1CCC1	none (no result: MITF act, Wnt bcat act)
CN(CC(=O)Nc1ccccc1Br)C(=O)c1cc2c(s1)CCCCC2	MITF act inconclusive, esBAF inh 67.1, Wnt bcat act 42.7 (no result: PglD inh, UUG fidelity) | esBAF Ring1 qPCR inactive | Fgf4 repress inactive | Bmi1 derepress inactive | A549 tox SP inactive | HepG2 cytotox SP inactive | HEK293 tox SP inactive
CN(CC(=O)Nc1ccccc1Br)C(=O)c1ccc(COc2ccccc2)cc1	none
COc1ccc2cc(C(=O)N(C)CC(=O)Nc3ccccc3Br)ccc2c1	esBAF inh 60.2, Wnt bcat act 42.4 | esBAF Ring1 qPCR inactive | Fgf4 repress inactive | Bmi1 derepress inactive | A549 tox SP inactive | HepG2 cytotox SP inactive | HEK293 tox SP inactive
CCC(=O)N1CC[C@@H]2[C@@H](CO)Nc3ccc(C#Cc4ccc(F)cc4)cc3[C@@H]21	none (no result: MITF act, Wnt bcat act)
O=Cc1cnc(N2CCCCC2)s1	none (no result: miR-122 sensor, esBAF inh, PglD inh, UUG fidelity)
O/N=C\c1cnc(N2CCN(c3ccccc3)CC2)s1	MITF act inconclusive, esBAF inh 84.3 | esBAF Ring1 qPCR inactive | Fgf4 repress inactive | Bmi1 derepress inactive | A549 tox SP inactive | HepG2 cytotox SP inactive | HEK293 tox SP inactive
O=C(c1cc(COc2ccc(-n3cncn3)cc2)on1)N1CCCC1	none (no result: miR-122 sensor)
CC(NC(=O)c1cc(COc2ccc(-n3cncn3)cc2)on1)c1ccc(F)cc1 (centres undefined)	esBAF inh 58.9 (no result: MITF act) | esBAF Ring1 qPCR inactive | Fgf4 repress inconclusive | Bmi1 derepress inactive | A549 tox SP inactive | HepG2 cytotox SP inactive | HEK293 tox SP inactive
COc1ccc(-c2cc3ccccc3s2)cc1[C@H]1[C@H]2C=CC[C@@H](C)[C@@H]2C(=O)N1Cc1ccccc1	esBAF inh 50.2, Wnt bcat act 36.9 | esBAF Ring1 qPCR inactive | Fgf4 repress inactive | Bmi1 derepress inactive | A549 tox SP inactive | HepG2 cytotox SP inactive | HEK293 tox SP inactive

Bioassay records deposited in PubChem BioAssay by Broad Institute.
